In patent US12329773B2, “Oxygen reactive polymers for treatment of traumatic brain injury” (University of Washington, priority 2015, dated 2025):

Assay: MR imaging of uptake, retention and clearance in CCI mouse model of TBI
Design: species or system mice
Conditions: in vivo
Description: 8-10 Week old C57/B6 mice were induced with 4% isoflurane gas via inhalation and maintained at 1.5-2%, then placed upon a warm heating pad set to 100° F. to maintain body temperature. Prior to surgery, hair on the top of the skull was trimmed and epilated via shears and Nair (Church and Dwight Co., Inc., Princeton, NJ). Lidocaine (0.05 mL at a 5 mg/mL) and bupivacaine (0.05 mL at 0.3 mg/mL) were injected subcutaneously under the scalp. After 5 min to allow anesthetic to absorb, a midline incision was made in the skin from lambda to bregma. Fascia and skin were retracted and a small hole drilled using a high speed surgical drill over the left frontoparietal cortex (3 mm anterior and 2 mm left from lambda), and a 3 mm circular cranial window created using rongeurs. A pneumatically-operated controlled cortical impactor (CCI) with a 3 mm convex tip was used to impact the brain normal to the dura surface at a depth of 1 mm at 6 m/s and remained in the brain for 150 ms. Incisions were closed using skin glue and mice given an intraperitoneal injection of buprenorphine (0.1 mg/kg). Mice were monitored under a heat lamp until awake. Within 15 min post-surgery ORP were injected through the tail vein at 100 mg/mL in PBS. […]

poly(MEMcoO950coMNHS) [ORP]
signal enhancement in muscle, cortex and striatum: eliminated by 24 hrs
